Data on 1 molecule can be found in paper PMC4926252 (Scientific Reports, 2016).

Broadly, the Kd is the free concentration of one partner at which half of the binding sites on the other are occupied at equilibrium, for simple one-to-one binding.

The target in the assay is T1, PstS (PA5369), periplasmic phosphate-binding protein, recombinant (P. aeruginosa, UniProt G3XDA8 25-323).
T1 construct: also called Pi-loaded PstS; source: E. coli BL21 (DE3), overexpressed, purified (HisTrap)
T1 sequence: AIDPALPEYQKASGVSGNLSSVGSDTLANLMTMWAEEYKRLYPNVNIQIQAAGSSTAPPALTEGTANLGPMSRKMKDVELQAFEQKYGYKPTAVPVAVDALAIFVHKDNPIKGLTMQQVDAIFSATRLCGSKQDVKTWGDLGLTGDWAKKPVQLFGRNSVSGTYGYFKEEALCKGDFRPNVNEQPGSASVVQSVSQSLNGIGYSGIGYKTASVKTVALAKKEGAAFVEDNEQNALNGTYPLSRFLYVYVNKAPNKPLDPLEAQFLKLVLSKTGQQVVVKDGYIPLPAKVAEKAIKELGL
In words: ITC; 5 uM Pi-loaded PstS in the cell titrated with 80 uM CtpL-LBD; 25 °C; one binding site model; means of three experiments. To be noted: both partners purified. For orientation: In ITC the heat of successive injections is recorded.

B1: ligand binding domain of the chemoreceptor CtpL (CtpL-LBD) (domain or fragment, P. aeruginosa, UniProt Q9HUW6 27-324, looked up)
chain: WSQRAMERPFQLLDQYLELSQRFDEQVARNIRQYLGSGDAVRQQAALQALESLAEALPELPPDLARTLAPSLAELREFSAGDLLAAGKLAGDPQGLLLQAERDLTGNLEQWSAYLDAAAGQPQAGAYRTPLLLASLHLTRLSLARAKLVESANPALAGDVERELANLREQAGRIEALPLLGVLDEQRSASDDFAAMMGLAGDAEAGAGNAEDRGVALRRELASLLQRYPDELRRTRDLIERRQQLSADTGARLDAVRQALATLEPQVRGERQRLQGQVRLIQGGMIALILLIALAIDS
notes: Cloned into pET28b(+); Held on a HisTrap column as bait in the pull-down; The discussion gives 286 amino acids for CtpL-LBD, whereas 27-324 is 298 residues; also called PA4844; source: E. coli BL21 (DE3), purified (HisTrap) from the soluble fraction
For B1, the Kd is 3.7 µM.
